The assay addresses T1, human α4β2δ GABAA receptors (Homo sapiens, UniProt P47870+P48169).
T1 construct: expressed in transfected cells; host or cells: Xenopus laevis oocytes injected with cRNA, 5:1:5 (α4:β2:δ)
Put plainly: two-electrode voltage clamp of α4β2δ GABAA receptors expressed in Xenopus laevis oocytes (RAD model analysis). The class given is cell-based. The protocol:
The human α4β2δ GABAA receptors were expressed in Xenopus laevis oocytes. Harvesting of oocytes was conducted under the Guide for the Care and Use of Laboratory Animals as adopted and promulgated by the National Institutes of Health. The animal protocol was approved by the Animal Studies Committee of Washington University in St. Louis (Approval No. 20170071).
The cDNAs of individual subunits in the pcDNA3 vector were linearized with Xba I (NEB Labs, Ipswich, MA). The cRNAs were generated using mMessage mMachine (Ambion, Austin, TX). The oocytes were injected with a total of 11 ng cRNA per oocyte in a 5:1:5 (α4:β2:δ) ratio. Following injection, the oocytes were incubated in bath solution (96 mM NaCl, 2 mM KCl, 1.8 mM CaCl2, 1 mM MgCl2, and 5 mM HEPES; pH 7.4) plus supplements (2.5 mM Na pyruvate, 100 U/ml penicillin, 100 μg/ml streptomycin, and 50 μg/ml gentamycin) at 15 °C for 3–4 days prior to conducting electrophysiological recordings.
The recordings were conducted at room temperature using standard two-electrode voltage clamp. […]
In such cases, the number of cell provided is given as a range of cell numbers for each concentration point. […] The level of constitutive activity was determined by exposing the cells to 100–300 μM picrotoxin.
The current traces were analyzed using Clampfit (Molecular Devices) to determine the amplitudes of peak and steady-state responses. […]
In general terms: Two-electrode voltage clamp is typically applied to oocytes expressing channels or transporters.

Protein sequences, listed by entry. Tags and fused reporters are not part of them. Lines headed by an entry give the natural chain unless they say otherwise; changes in a name come on top. Residues count along the entry.
UniProt P47870, 25-512 limits assumed: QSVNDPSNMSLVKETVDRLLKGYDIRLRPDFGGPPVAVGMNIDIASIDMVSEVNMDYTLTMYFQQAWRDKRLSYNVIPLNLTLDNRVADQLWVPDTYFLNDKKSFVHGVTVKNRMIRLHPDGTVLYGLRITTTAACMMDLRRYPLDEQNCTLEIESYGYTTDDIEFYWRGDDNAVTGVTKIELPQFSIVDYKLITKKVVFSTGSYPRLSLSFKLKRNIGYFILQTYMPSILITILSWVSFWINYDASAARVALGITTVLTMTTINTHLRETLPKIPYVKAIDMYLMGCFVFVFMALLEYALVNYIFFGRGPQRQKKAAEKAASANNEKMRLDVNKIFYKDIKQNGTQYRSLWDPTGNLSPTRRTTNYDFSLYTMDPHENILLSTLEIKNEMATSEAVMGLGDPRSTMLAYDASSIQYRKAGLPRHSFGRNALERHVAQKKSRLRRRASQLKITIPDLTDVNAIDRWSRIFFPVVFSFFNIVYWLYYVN
UniProt P48169, 36-554: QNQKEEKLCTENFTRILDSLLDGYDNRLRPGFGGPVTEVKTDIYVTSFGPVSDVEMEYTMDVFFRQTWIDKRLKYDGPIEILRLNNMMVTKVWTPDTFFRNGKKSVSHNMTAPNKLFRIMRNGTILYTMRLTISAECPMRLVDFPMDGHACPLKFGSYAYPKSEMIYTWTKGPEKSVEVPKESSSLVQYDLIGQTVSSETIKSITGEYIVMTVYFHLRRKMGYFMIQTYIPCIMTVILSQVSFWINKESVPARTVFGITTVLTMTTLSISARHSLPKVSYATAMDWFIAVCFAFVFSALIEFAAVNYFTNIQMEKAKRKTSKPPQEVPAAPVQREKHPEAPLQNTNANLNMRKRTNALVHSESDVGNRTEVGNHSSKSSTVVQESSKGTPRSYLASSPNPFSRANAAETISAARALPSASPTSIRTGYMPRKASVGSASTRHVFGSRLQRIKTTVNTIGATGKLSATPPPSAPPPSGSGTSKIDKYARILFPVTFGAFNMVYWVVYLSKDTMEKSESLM

Regarding pregnenolone sulfate [PS], where the note is “inhibition of steady-state current elicited by 0.3 μM GABA”, half-maximal inhibition (IC50) was put at 1400 ± 300 nM. The Kd (read-out: KPS, equilibrium dissociation constant of the resting and active receptors, fit to Eq. (3), 0.3 μM GABA, 1 site) stood at 2600 ± 600 nM.

The values above are taken from publication PMC6831628, “Steady-state activation of the high-affinity isoform of the α4β2δ GABAA receptor” (Scientific Reports, 2019).
